Source: patent EP4834908A1, “FUSED RING COMPOUND, PHARMACEUTICAL COMPOSITION CONTAINING SAME AND USE THEREOF” (dated 2026)

Amino acid sequences for entries named in this document (tags omitted).
UniProt Q14191, whole entry: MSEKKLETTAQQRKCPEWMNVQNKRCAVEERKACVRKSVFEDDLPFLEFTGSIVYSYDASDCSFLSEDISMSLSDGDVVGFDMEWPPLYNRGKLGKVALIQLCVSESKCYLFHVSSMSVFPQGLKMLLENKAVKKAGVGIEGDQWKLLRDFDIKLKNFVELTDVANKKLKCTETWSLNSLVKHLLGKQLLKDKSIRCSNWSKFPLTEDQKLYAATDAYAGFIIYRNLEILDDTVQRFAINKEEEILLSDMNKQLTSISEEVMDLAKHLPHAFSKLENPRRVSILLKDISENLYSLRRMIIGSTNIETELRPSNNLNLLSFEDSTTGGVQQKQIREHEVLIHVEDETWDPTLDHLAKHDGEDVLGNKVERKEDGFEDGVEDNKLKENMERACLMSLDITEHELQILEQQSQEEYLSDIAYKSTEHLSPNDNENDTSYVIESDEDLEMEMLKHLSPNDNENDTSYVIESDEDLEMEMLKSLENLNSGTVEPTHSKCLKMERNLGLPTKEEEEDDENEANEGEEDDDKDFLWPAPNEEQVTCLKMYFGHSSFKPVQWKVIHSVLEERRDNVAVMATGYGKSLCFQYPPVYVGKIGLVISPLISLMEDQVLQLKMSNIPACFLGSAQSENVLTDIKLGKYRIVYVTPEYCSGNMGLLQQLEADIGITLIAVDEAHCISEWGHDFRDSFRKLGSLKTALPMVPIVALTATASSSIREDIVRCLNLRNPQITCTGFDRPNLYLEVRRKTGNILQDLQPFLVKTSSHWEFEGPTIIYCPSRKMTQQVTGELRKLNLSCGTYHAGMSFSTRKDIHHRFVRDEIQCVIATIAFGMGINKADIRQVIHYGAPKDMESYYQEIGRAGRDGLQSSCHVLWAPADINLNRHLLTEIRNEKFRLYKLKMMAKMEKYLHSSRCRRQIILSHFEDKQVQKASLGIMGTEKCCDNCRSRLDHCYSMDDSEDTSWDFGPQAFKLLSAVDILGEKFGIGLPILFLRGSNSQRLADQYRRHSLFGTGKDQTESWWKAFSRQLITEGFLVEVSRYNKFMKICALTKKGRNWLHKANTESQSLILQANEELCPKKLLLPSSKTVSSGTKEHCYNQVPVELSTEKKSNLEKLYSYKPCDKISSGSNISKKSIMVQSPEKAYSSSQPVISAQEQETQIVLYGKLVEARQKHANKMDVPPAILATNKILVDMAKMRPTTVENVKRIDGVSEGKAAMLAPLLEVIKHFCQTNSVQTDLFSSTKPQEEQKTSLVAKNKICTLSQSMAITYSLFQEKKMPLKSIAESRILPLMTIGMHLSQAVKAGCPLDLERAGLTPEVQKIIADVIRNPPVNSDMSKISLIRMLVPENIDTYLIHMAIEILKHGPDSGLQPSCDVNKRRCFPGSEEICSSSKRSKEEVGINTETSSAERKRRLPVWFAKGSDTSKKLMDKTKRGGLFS

These molecules were tested on HCT116 cells (assay: Inhibitory activity assay for tumor cell proliferation (CellCounting-Lite), HCT116). Details: read-out: HCT116 Proliferation inhibition IC50, 4 days treatment.
Experimental: (§1) Human colonic adenocarcinoma SW48 cells were cultured in monolayer in vitro under the following conditions: DMEM medium containing 10% fetal bovine serum and 1% penicillin and streptomycin, at 37 °C with 5% CO2. Human colonic adenocarcinoma HCT116 cells were cultured in monolayer in vitro under the following conditions: McCOY's5A medium containing 10% fetal bovine serum and 1% penicillin and streptomycin, at 37 °C with 5% CO2. DLD1-WRN-KO cells were cultured in monolayer in vitro under the following conditions: 1640 medium containing 10% fetal bovine serum and 1% penicillin and streptomycin, at 37 °C with 5% CO2. The cells were digested with trypsin twice a week for passaging.
(§2) After treatment of SW48 cell lines and HCT116 cell lines with microsatellite instability and the control DLD1-WRN-KO cell line using the test compounds for 4 days, ATP levels were measured using a CellCounting-Lite kit from Vazyme to evaluate inhibitory effects of the test compounds on the growth of tumor cell lines.
(§3) In the present application, the SW48 cell line, the HCT116 cell line, and the DLD1-WRN-KO cell line were seeded into a 96-well cell culture plate at an appropriate cell density. After 24 h, the cells were treated with the test compounds at the highest concentration of 10 µM, followed by 1:3 serial dilution to obtain 9 concentration gradients, and a DMSO treatment group was set up separately. The cells were cultured in an incubator at 37 °C with 5% CO2 for 4 days. To evaluate inhibitory effects of the test compounds on tumor cell proliferation, the cells were equilibrated at room temperature for 30 min, and then 100 µL of a cell proliferation detection reagent, CellCounting-Lite (CCL), was added to each well. The plate was shaken for 5 min and then incubated in the dark for 10 min. Chemiluminescence values were read using a Thermo Varioskan LUX-3020 multifunctional microplate reader for conversion to proliferation indices to calculate the inhibition rate of the compound on tumor cell proliferation, and the inhibition rate value and the logarithm value of the compound concentration were fitted using non-linear regression (dose response-variable slope) to obtain the IC50 value of the compound. Table 2. Inhibitory activity data of compounds in the examples of the present application against tumor cell proliferation

Row | Structure (SMILES) | IC50 [nM]
1 | Cc1ncnc(C(=O)N2CCN(c3c4n(c5nc(-c6ccccn6)nn5c3=O)C(C(=O)Nc3ccc5c(c3Cl)OC(F)(F)O5)CC4C)[C@H]3CC[C@@H]32)c1O (single isomer, unassigned) [C93-P1] | 19
2 | Cc1ncnc(C(=O)N2CCN(c3c4n(c5nc(-c6ccccn6)nn5c3=O)C(C(=O)Nc3ccc5c(c3Cl)OC(F)(F)O5)CC4C)[C@H]3CC[C@@H]32)c1O (single isomer, unassigned) [C93-P3] | 5.4
3 | Cc1ncnc(C(=O)N2CCN(c3c4n(c5nc(-c6ccccc6)nn5c3=O)C(C(=O)Nc3ccc5c(c3)OC(F)(F)O5)CC4C)[C@H]3CC[C@@H]32)c1O (single isomer, unassigned) [C43-P1] | 9
4 | Cc1ncnc(C(=O)N2CCN(c3c4n(c5nc(-c6ccccn6)nn5c3=O)C(C(=O)Nc3ccc5c(c3C)OC(F)(F)O5)CC4C)C3CCC32)c1O (single isomer, unassigned) [C143-P3] | 7.2

Now those with a lower IC50, led by results:

Row | IC50 [nM] | Structure (SMILES)
5 | 4 | Cc1ncnc(C(=O)N2CCN(c3c4n(c5nc(-c6ccccc6)nn5c3=O)C(C(=O)Nc3ccc5c(c3)OC(F)(F)O5)CC4C)[C@H]3CC[C@@H]32)c1O (single isomer, unassigned) [C43-P3]
6 | 2.5 | Cc1ncnc(C(=O)N2CCN(c3c4n(c5nc(-c6ccccc6)nn5c3=O)C(C(=O)Nc3ccc5c(c3C)OC(F)(F)O5)CC4C)[C@H]3CC[C@@H]32)c1O (single isomer, unassigned)

What follows are molecules tested on SW48 cells (assay: Inhibitory activity assay for tumor cell proliferation (CellCounting-Lite), SW48). Details: read-out: SW48 Proliferation inhibition IC50, 4 days treatment.
Experimental: as §1, §2, §3

Row | Structure (SMILES) | IC50 [nM]
7 | Cc1ncnc(C(=O)N2CCN(c3c4n(c5nc(-c6ccccn6)nn5c3=O)C(C(=O)Nc3ccc5c(c3Cl)OC(F)(F)O5)CC4C)[C@H]3CC[C@@H]32)c1O (single isomer, unassigned) [C93-P1] | 10
8 | Cc1ncnc(C(=O)N2CCN(c3c4n(c5nc(-c6ccccn6)nn5c3=O)C(C(=O)Nc3ccc5c(c3Cl)OC(F)(F)O5)CC4C)[C@H]3CC[C@@H]32)c1O (single isomer, unassigned) [C93-P3] | 4.2
9 | Cc1ncnc(C(=O)N2CCN(c3c4n(c5nc(-c6ccccc6)nn5c3=O)C(C(=O)Nc3ccc5c(c3)OC(F)(F)O5)CC4C)[C@H]3CC[C@@H]32)c1O (single isomer, unassigned) [C43-P1] | 10
10 | Cc1ncnc(C(=O)N2CCN(c3c4n(c5nc(-c6ccccn6)nn5c3=O)C(C(=O)Nc3ccc5c(c3C)OC(F)(F)O5)CC4C)C3CCC32)c1O (single isomer, unassigned) [C143-P3] | 2.7

Continued, values first:

Row | IC50 [nM] | Structure (SMILES)
11 | 11 | Cc1ncnc(C(=O)N2CCN(c3c4n(c5nc(-c6ccccc6)nn5c3=O)C(C(=O)Nc3ccc5c(c3)OC(F)(F)O5)CC4C)[C@H]3CC[C@@H]32)c1O (single isomer, unassigned) [C43-P3]
12 | 1 | Cc1ncnc(C(=O)N2CCN(c3c4n(c5nc(-c6ccccc6)nn5c3=O)C(C(=O)Nc3ccc5c(c3C)OC(F)(F)O5)CC4C)[C@H]3CC[C@@H]32)c1O (single isomer, unassigned)

The molecules below were run against WRN helicase (Homo sapiens, UniProt Q14191) (assay: ATPase activity assay of WRN helicase (ADP-Glo)). Details: read-out: WRN ATPase activity inhibition IC50; 10 nM WRN, 300 µM ATP, 0.4 nM FLAP26; 3 h pre-incubation at 37 °C.
Experimental: The ADP content generated by ATP hydrolysis catalyzed by WRN helicase was measured using a commercial ADP-Glo assay kit (Promega, #V9102), and the measured ADP level could reflect the ATPase activity of WRN helicase.
The 45 nt oligonucleotide single-stranded DNA FLAP26 ([…]) was synthesized by Azenta. Reference was made, for example, to Brosh RM Jr et al., J Biol Chem, 2002 Jun;277(26):23236-45. A reaction buffer (30 mM Tris pH 7.5, 2 mM MgCl2, 0.02% BSA, 50 mM NaCl, 0.1% pluronic F127) was prepared. To a 384-well clear plate were sequentially added 5 µL of 3× test compound (which was diluted in the reaction buffer to contain 0.5% DMSO, with a final initial concentration of 10 µM and subjected to 1:3 serial dilution to obtain a total of 9 concentration gradients), 5 µL of 3× WRN recombinant protein, and 3× ATP substrate solution (diluted in the reaction buffer, with final concentrations of WRN and ATP being 10 nM and 300 µM, respectively). The resulting mixture was mixed well by shaking and incubated at 37 °C for 3 h. Subsequently, a 3× FLAP26 solution was prepared using the reaction buffer, and 5 µL of the solution (with a final FLAP26 concentration of 0.4 nM) was added to the 384-well clear plate. The mixture was mixed well by shaking to initiate the enzymatic reaction, and then incubated at room temperature for 30 min.
5 µL of the above mixture was transferred to a 3 84-well white plate, and 5 µL of ADP-Glo reagent was added. The mixture was mixed well by shaking, and incubated at room temperature in the dark for 40 min. 10 µL of kinase detection reagent was added to the above solution. The mixture was mixed well by shaking and incubated at room temperature in the dark for 30 min, and then chemiluminescence readings were recorded. The inhibition rate of the compound on the enzyme activity was calculated, and the inhibition rate value and the logarithm value of the compound concentration were fitted using non-linear regression (dose response-variable slope) to obtain the IC50 value of the test compound. Table 1. WRN ATPase activity data of compounds in the examples of the present application

Row | Structure (SMILES) | IC50 [nM]
13 | Cc1ncnc(C(=O)N2CCN(c3c4n(c5nc(-c6ccccn6)nn5c3=O)C(C(=O)Nc3ccc5c(c3Cl)OC(F)(F)O5)CC4C)[C@H]3CC[C@@H]32)c1O (single isomer, unassigned) [C93-P1] | 9
14 | Cc1ncnc(C(=O)N2CCN(c3c4n(c5nc(-c6ccccn6)nn5c3=O)C(C(=O)Nc3ccc5c(c3Cl)OC(F)(F)O5)CC4C)[C@H]3CC[C@@H]32)c1O (single isomer, unassigned) [C93-P3] | 9
15 | Cc1ncnc(C(=O)N2CCN(c3c4n(c5nc(-c6ccccc6)nn5c3=O)C(C(=O)Nc3ccc5c(c3)OC(F)(F)O5)CC4C)[C@H]3CC[C@@H]32)c1O (single isomer, unassigned) [C43-P1] | 4
16 | Cc1ncnc(C(=O)N2CCN(c3c4n(c5nc(-c6ccccn6)nn5c3=O)C(C(=O)Nc3ccc5c(c3C)OC(F)(F)O5)CC4C)C3CCC32)c1O (single isomer, unassigned) [C143-P3] | 17

The next lines start with the values.

Row | IC50 [nM] | Structure (SMILES)
17 | 4 | Cc1ncnc(C(=O)N2CCN(c3c4n(c5nc(-c6ccccc6)nn5c3=O)C(C(=O)Nc3ccc5c(c3)OC(F)(F)O5)CC4C)[C@H]3CC[C@@H]32)c1O (single isomer, unassigned) [C43-P3]
18 | 1 | Cc1ncnc(C(=O)N2CCN(c3c4n(c5nc(-c6ccccc6)nn5c3=O)C(C(=O)Nc3ccc5c(c3C)OC(F)(F)O5)CC4C)[C@H]3CC[C@@H]32)c1O (single isomer, unassigned)

Each molecule was assayed on DLD1-WRN-KO cell line (assay: Inhibitory activity assay for cell proliferation (CellCounting-Lite), DLD1-WRN-KO off-target control). Details: read-out: DLD1-WRN-KO Proliferation inhibition IC50; DLD1-WRN-KO cells, 4 days treatment.
Experimental: A DLD1-WRN-KO cell line was constructed by stably knocking out the WRN gene in DLD1 cells using CRISPR/Cas9 technology, and the constructed cell line was used to evaluate potential off-target effects of the compounds.
as §1, §2, §3

Row | Structure (SMILES) | IC50 [nM]
19 | Cc1ncnc(C(=O)N2CCN(c3c4n(c5nc(-c6ccccn6)nn5c3=O)C(C(=O)Nc3ccc5c(c3Cl)OC(F)(F)O5)CC4C)[C@H]3CC[C@@H]32)c1O (single isomer, unassigned) [C93-P1] | > 10000
20 | Cc1ncnc(C(=O)N2CCN(c3c4n(c5nc(-c6ccccn6)nn5c3=O)C(C(=O)Nc3ccc5c(c3Cl)OC(F)(F)O5)CC4C)[C@H]3CC[C@@H]32)c1O (single isomer, unassigned) [C93-P3] | > 10000
21 | Cc1ncnc(C(=O)N2CCN(c3c4n(c5nc(-c6ccccc6)nn5c3=O)C(C(=O)Nc3ccc5c(c3)OC(F)(F)O5)CC4C)[C@H]3CC[C@@H]32)c1O (single isomer, unassigned) [C43-P1] | > 10000
22 | Cc1ncnc(C(=O)N2CCN(c3c4n(c5nc(-c6ccccn6)nn5c3=O)C(C(=O)Nc3ccc5c(c3C)OC(F)(F)O5)CC4C)C3CCC32)c1O (single isomer, unassigned) [C143-P3] | > 10000

The remaining lines, values ahead:

Row | IC50 [nM] | Structure (SMILES)
23 | > 10000 | Cc1ncnc(C(=O)N2CCN(c3c4n(c5nc(-c6ccccc6)nn5c3=O)C(C(=O)Nc3ccc5c(c3)OC(F)(F)O5)CC4C)[C@H]3CC[C@@H]32)c1O (single isomer, unassigned) [C43-P3]
24 | > 10000 | Cc1ncnc(C(=O)N2CCN(c3c4n(c5nc(-c6ccccc6)nn5c3=O)C(C(=O)Nc3ccc5c(c3C)OC(F)(F)O5)CC4C)[C@H]3CC[C@@H]32)c1O (single isomer, unassigned)
